Data taken from US9409952B2, “Peptide-compound cyclization method” (Chugai Seiyaku Kabushiki Kaisha, priority 2011, dated 2016).

Assay: Metabolic stability in human hepatic microsome
Type: in vitro ADME
Conditions: microsomes, pH 7.4, NADPH(+), read-out: CL NADPH(+)

SMILES: CC(C)C[C@H]1C(=O)NCC(=O)N[C@H](C(=O)N2CCCCC2)CC(=O)NC(C)(C)C(=O)N[C@@H]([C@@H](C)O)C(=O)N(C)[C@@H](C)C(=O)N(C)[C@@H](Cc2ccccc2)C(=O)N(C)[C@@H](Cc2ccccc2)C(=O)N[C@@H](COC(C)(C)C)C(=O)N1C [DP-562]
- microsomal CLint at 1 uM: 91 µL/min/mg
